This passage reports Ki results from patent US9206164B2, “Pyrazole compounds as CRTH2 antagonists” (Boehringer Ingelheim International GmbH, priority 2011, dated 2015).

Sequences of proteins named here, by UniProt entry; tags and fusion partners are left off.
UniProt Q9Y5Y4, whole entry: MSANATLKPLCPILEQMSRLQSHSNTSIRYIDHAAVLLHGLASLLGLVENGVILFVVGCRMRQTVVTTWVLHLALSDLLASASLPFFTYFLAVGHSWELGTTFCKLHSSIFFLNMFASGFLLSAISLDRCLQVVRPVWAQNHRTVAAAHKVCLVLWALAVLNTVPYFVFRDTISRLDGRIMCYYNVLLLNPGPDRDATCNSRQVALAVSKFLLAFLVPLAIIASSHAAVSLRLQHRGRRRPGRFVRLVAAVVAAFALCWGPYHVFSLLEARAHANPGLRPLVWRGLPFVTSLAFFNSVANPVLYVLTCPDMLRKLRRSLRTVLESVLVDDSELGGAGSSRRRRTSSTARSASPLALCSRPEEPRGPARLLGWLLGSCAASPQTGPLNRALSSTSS

This experiment has as its target human CRTH2 receptor (Homo sapiens (Human), UniProt Q9Y5Y4). Nature of the experiment: CRTH2 receptor radioligand binding assay (SPA, [3H]-PGD2 displacement). The following applies: antagonistic activities of selected compounds. On the procedure:
The binding of CRTH2 antagonists is determined using membranes prepared from Chinese hamster ovary cells (CHO-K1 cells) transfected with the human CRTH2 receptor (CHO-K1-hCRTH2 cells, Perkin Elmer, Cat No ES-561-C). To produce cell membranes the CHO-K1-hCRTH2 cells are cultured in suspension in CHO SFMII medium supplemented with 400 μg/ml G418. The cells are harvested by centrifugation at 300 g for 10 min at room temperature. The cell pellet is resuspended in Phosphate Buffer Saline (PBS) including a protease inhibitor mix (Complete, Roche) and adjusted to a concentration of 10E7 cells/ml. The CHO-K1-hCRTH2 cells are disrupted by nitrogen […] to obtain the membrane preparation. Cell debris is removed by centrifugation (500 g at 4° C., 30 min) and the supernatant is transferred into fresh tubes followed by a second centrifugation at 40000 g for 1 h at 4° C. to sediment the membranes. The membranes are suspended in SPA incubation buffer (50 mM Tris HCl, 10 mM MgCl2, 150 mM NaCl, 1 mM EDTA, pH 7.4) without bovine serum albumin, homogenized by passing through a single use needle (Terumo, 23G×1″), and stored in aliquots at −80° C.
The CRTH2 receptor binding assay is performed in a scintillation proximity assay (SPA) format with the radioligand [^3H]-PGD2 (Perkin Elmer, NET616000MC). […] Bound radioactivity is determined with a scintillation counter (Micro Beta Trilux, Wallac).
The binding of [^3H]-PGD2 to CHO-K1-hCRTH2 cell membranes is determined in the absence (total binding, Bo) and presence (non-specific binding, NSB) of unlabelled PGD2 (1 μM, Cayman Chemical, Cat No 12010) or a reference CRTH2 antagonist (10 μM CAY10471, Cayman Chemical, Cat No 10006735).
Determination of the affinity of a test compound is calculated by subtraction of the non-specific binding (NSB) from the total binding (Bo) or the binding in the presence of the test compound (B) at a given compound concentration. […]

As for `CCc1nn(Cc2ccc(-c3nc4cc(C)ccc4[nH]3)cc2F)c(CC)c1CC(=O)O`, the Ki (commonly a measure of affinity in units of concentration, obtained from inhibition or displacement) worked out at 1.4 nM. On to `Cc1nn(Cc2ccc(-c3nc4cc(Cl)c(Cl)cc4n3C)cc2)c(C)c1CC(=O)O`, for which the Ki is 138 nM. For the molecule `CCc1nn(Cc2ccc(-c3nc4cc(Br)ccc4[nH]3)cc2)c(CC)c1CC(=O)O`, the Ki was 0.3 nM.
